Data from ChEMBL document CHEMBL1137197, “Discovery of thiadiazoles as a novel structural class of potent and selective PDE7 inhibitors. Part 1: design, synthesis and structure-activity relationship studies” (Bioorg Med Chem Lett, 2004).
pIC50: −log10 of the molar value.

The chains behind the UniProt entries cited, without tags or fusion partners. Where a name states a change or a piece, a line headed by the entry shows the natural chain unless it says otherwise.
UniProt Q13946: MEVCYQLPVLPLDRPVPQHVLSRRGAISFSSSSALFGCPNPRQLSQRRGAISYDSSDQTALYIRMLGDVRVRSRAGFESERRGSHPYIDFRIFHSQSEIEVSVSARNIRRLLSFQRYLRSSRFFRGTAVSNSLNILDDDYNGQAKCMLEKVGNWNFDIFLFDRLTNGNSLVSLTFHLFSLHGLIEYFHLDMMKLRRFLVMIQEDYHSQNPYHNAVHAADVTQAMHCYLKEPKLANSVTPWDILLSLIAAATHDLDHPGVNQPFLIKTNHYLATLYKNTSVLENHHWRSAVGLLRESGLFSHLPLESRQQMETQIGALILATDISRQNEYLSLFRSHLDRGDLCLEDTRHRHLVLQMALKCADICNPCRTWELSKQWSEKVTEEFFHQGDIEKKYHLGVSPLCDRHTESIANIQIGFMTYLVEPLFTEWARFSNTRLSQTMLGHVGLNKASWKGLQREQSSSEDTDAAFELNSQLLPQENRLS

Biological target: High affinity 3',5'-cyclic-AMP phosphodiesterase 7A (Homo sapiens, UniProt Q13946)
Assay: Inhibition of human Phosphodiesterase 7A1 expressed in baculovirus infected Sf9 cells

## CC(=O)Nc1ccc(-c2nn(C)/c(=N/C3CCCCC3)s2)cc1
  pIC50: 7.22
